## Cyclic peptide permeability, from CycPeptMPDB

Data: CycPeptMPDB; original report Townsend et al. 2020, doi:10.26434/chemrxiv.13335941.v1.

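Conditions beyond the assay type are not listed; see the original paper. Other peptides of the study may be missing here. Peptides that the database sets to -10, its floor, are left out.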

PAMPA is the parallel artificial membrane permeability assay, which has no cells and reads passive diffusion. Permeability is in 10^-6 cm/s, converted from the database's log10 values; higher is more permeable.

CCCN1CC(=O)N(C)[C@@H](CC(C)C)C(=O)N(C)[C@H](CC(C)C)C(=O)N2CCC[C@H]2C(=O)N(C)[C@@H](CC(C)C)C(=O)N[C@@H](Cc2ccccc2)C1=O is reported with PAMPA 15 × 10^-6 cm/s.
CC(C)C[C@H]1NC(=O)C[C@H](Cc2ccccc2)NC(=O)[C@@H]2CCCN2C(=O)[C@H](Cc2ccccc2)NC(=O)[C@@H](CC(C)C)NC(=O)[C@@H]2CCCN2C(=O)C[C@H](Cc2ccccc2)NC1=O is reported with PAMPA 1.8 × 10^-6 cm/s.
CC(C)C[C@@H]1C(=O)N(C)[C@@H](CC(C)C)C(=O)N2CCC[C@@H]2C(=O)N[C@H](CC(C)C)C(=O)N[C@@H](Cc2ccccc2)C(=O)N[C@@H](C)C(=O)N1C is reported with PAMPA 2 × 10^-6 cm/s.
CC(C)C[C@@H]1C(=O)N2CCC[C@H]2C(=O)N(C)[C@@H](CC(C)C)C(=O)N[C@@H](Cc2ccccc2)C(=O)N2CCC[C@@H]2C(=O)N[C@H](C)C(=O)N[C@H](CC(C)C)C(=O)N1C is reported with PAMPA 0.76 × 10^-6 cm/s.
CCCN1CC(=O)N[C@H](CC(C)C)C(=O)N(C)[C@@H](CC(C)C)C(=O)N2CCC[C@H]2C(=O)N[C@@H](CC(C)C)C(=O)N[C@@H](Cc2ccccc2)C(=O)N2CCC[C@H]2C1=O is reported with PAMPA 0.85 × 10^-6 cm/s.
CC(C)C[C@@H]1C(=O)N2CCC[C@H]2C(=O)N(C)[C@@H](CC(C)C)C(=O)N[C@@H](Cc2ccccc2)C(=O)N2CCC[C@@H]2C(=O)N(C)[C@@H](C)C(=O)N(C)[C@H](CC(C)C)C(=O)N1C is reported with PAMPA 11 × 10^-6 cm/s.
CC(C)C[C@@H]1NC(=O)[C@H](CC(C)C)N(C)C(=O)[C@@H](C)N(C)C(=O)[C@H]2CCCN2C(=O)[C@H](Cc2ccccc2)NC(=O)[C@@H](CC(C)C)NC(=O)[C@@H]2CCCN2C1=O is reported with PAMPA 0.47 × 10^-6 cm/s.
CC(C)C[C@H]1NC(=O)[C@H]2CCCN2C(=O)CN(Cc2ccccc2)C(=O)[C@@H](CC(C)C)NC(=O)C[C@H](Cc2ccccc2)NC(=O)[C@@H]2CCCN2C(=O)[C@H](Cc2ccccc2)NC1=O is reported with PAMPA 1.4 × 10^-6 cm/s.
CC(C)C[C@@H]1NC(=O)[C@H](C)NC(=O)[C@H](Cc2ccccc2)NC(=O)[C@@H](CC(C)C)NC(=O)[C@@H]2CCCN2C(=O)[C@@H](CC(C)C)NC1=O is reported with PAMPA 0.59 × 10^-6 cm/s.
CC(C)C[C@@H]1C(=O)N(C)[C@@H](CC(C)C)C(=O)N2CCC[C@@H]2C(=O)N(Cc2ccccc2)CC(=O)N[C@@H](Cc2ccccc2)C(=O)N2CCC[C@@H]2C(=O)N(C)[C@@H](C)C(=O)N1C is reported with PAMPA 5.8 × 10^-6 cm/s.
CC(C)C[C@@H]1NC(=O)[C@H]2CCCN2C(=O)[C@@H](CC(C)C)NC(=O)[C@@H](CC(C)C)NC(=O)[C@@H](C)N(C)C(=O)[C@H](Cc2ccccc2)NC1=O is reported with PAMPA 0.28 × 10^-6 cm/s.
CC(C)C[C@@H]1C(=O)N2CCC[C@@H]2C(=O)N[C@H](CC(C)C)C(=O)N[C@@H](Cc2ccccc2)C(=O)N2CCC[C@@H]2C(=O)N(C)[C@@H](C)C(=O)N(Cc2ccccc2)CC(=O)N1C is reported with PAMPA 4.5 × 10^-6 cm/s.
CCCN1CC(=O)N[C@@H](CC(C)C)C(=O)N(C)[C@H](CC(C)C)C(=O)N2CCC[C@@H]2C(=O)N[C@@H](CC(C)C)C(=O)N[C@@H](Cc2ccccc2)C(=O)N2CCC[C@@H]2C1=O is reported with PAMPA 1.9 × 10^-6 cm/s.

A selection of 2 entries from above:

| structure (SMILES) | PAMPA (10^-6 cm/s) |
|---|---|
| CC(C)C[C@@H]1C(=O)N(C)[C@@H](CC(C)C)C(=O)N2CCC[C@@H]2C(=O)N(Cc2ccccc2)CC(=O)N[C@@H](Cc2ccccc2)C(=O)N2CCC[C@@H]2C(=O)N(C)[C@@H](C)C(=O)N1C | 5.8 |
| CCCN1CC(=O)N[C@H](CC(C)C)C(=O)N(C)[C@@H](CC(C)C)C(=O)N2CCC[C@H]2C(=O)N[C@@H](CC(C)C)C(=O)N[C@@H](Cc2ccccc2)C(=O)N2CCC[C@H]2C1=O | 0.85 |